Target: mGlu5 Y658V (Rattus norvegicus, UniProt P31424, Y658V)
Assay: Progressive fold-shift at mGlu5 point mutant, operational model of allosterism

By UniProt entry, the sequences of proteins in these tests, tags left out. Residues count along the entry.
UniProt P31424, 21-1203 Y658V: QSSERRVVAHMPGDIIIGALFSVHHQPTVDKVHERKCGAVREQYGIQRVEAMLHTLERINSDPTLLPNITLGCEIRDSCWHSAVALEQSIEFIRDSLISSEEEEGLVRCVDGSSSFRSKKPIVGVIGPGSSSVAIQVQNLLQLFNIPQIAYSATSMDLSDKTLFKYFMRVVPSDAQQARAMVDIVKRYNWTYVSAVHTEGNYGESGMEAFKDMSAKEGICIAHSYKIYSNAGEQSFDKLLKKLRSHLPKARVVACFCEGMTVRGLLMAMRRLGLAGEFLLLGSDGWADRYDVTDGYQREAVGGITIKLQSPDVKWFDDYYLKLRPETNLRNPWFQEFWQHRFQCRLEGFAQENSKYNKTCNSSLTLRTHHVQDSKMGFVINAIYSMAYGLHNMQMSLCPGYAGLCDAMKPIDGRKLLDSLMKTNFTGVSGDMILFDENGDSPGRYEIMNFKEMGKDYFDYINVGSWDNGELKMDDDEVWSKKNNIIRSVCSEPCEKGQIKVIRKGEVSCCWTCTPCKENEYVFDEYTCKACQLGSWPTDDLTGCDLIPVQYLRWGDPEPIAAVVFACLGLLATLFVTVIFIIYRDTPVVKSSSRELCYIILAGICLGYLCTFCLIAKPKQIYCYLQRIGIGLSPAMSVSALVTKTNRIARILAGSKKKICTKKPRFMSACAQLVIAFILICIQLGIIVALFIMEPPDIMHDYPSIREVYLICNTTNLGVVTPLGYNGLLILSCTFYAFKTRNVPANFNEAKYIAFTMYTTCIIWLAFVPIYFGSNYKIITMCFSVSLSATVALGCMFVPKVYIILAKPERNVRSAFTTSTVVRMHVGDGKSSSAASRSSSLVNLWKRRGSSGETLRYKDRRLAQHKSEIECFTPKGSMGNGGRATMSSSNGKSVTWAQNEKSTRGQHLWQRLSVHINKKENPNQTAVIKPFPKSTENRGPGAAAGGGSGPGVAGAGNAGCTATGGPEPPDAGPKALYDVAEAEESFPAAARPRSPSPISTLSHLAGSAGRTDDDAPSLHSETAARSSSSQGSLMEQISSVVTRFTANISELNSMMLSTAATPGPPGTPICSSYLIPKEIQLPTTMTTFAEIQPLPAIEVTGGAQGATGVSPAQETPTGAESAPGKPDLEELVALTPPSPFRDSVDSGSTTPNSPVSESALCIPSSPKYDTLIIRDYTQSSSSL

C[C@@H](NC(=O)c1ccc(C#Cc2ccccn2)cn1)C(C)(C)O [Compound 31i, (R)-N-(3-Hydroxy-3-methylbutan-2-yl)-5-(pyridin-2-ylethynyl)picolinamide]
Effect of Y658V mutation: no effect on affinity or cooperativity

CC1(NC(=O)c2ccc(C#Cc3cccc(F)c3)cn2)COC1 [Compound 38t, 5-((3-Fluorophenyl)ethynyl)-N-(3-methyloxetan-3-yl)picolinamide]
Effect of Y658V mutation: NAM switch
